Experimental data: patent publication US4898940A (priority 1989, dated 1990)

Legend:
[1] = test system: Lymphocytic leukemia P388; test: Antitumor activity against P388 leukemia in mice; assay type: in vivo, CDF1 and BDF1 mice; details: schedule 1 (once daily on days 1, 4 and 7)
Protocol: (§1) Lymphocytic leukemia P388 (CDF1 and BDF1 mice) and lymphoid leukemia L1210 (BDF1 mice) were inoculated by intraperitoneal injection of 0.8 ml diluted ascitic fluid containing 10^6 and 10^5 cells per mouse, respectively. Melanotic melanoma B16 (BDF1 mice) were implanted 0.5 ml of a 10% tumor brei intraperitoneally. Test materials were dissolved in 0.9% saline containing 10% dimethyl sulfoxide and graded doses of them were administered to mice intraperitoneally 24 hours after tumor implantation. Either olivomycin (NSC 38270) or mitomycin C was comparatively tested as a reference compound in the experiments.
Values for percentage ratios of 125 and above indicate significant antitumor effect.

Melanotic melanoma B16 = test: Antitumor activity against B16 melanoma in mice; assay type: in vivo; details: 0.13 mg/kg/day ip, BDF1 mice
Protocol: as §1

Compound	T/C % of MST ([1]; 1 mg/kg/day ip)	T/C % of MST ([1]; 3 mg/kg/day ip)	T/C % of MST (Melanotic melanoma B16)
Olivomycin A [reference compound]	135%	140%	–
CCCCCCC/C=C/C=C/C(=O)N[C@H](C(=O)N[C@H]1C[C@@H](O)CCNC(=O)/C=C/[C@H](C)NC1=O)[C@@H](C)O [BU-2867T A]	–	–	100%
